Measurements reported in patent US20100260680A1, “NOVEL BONE MASS INCREASING AGENT” (ORIENTAL YEAST CO., LTD., priority 2007, published 2010).

Key:
MAP kinase p38 = experiment: Western blotting of p38 phosphorylation in MC3T3-E1 cells; type: cell-based, mouse; settings: 1 hour after the addition; 200 ng/ml BMP-2
Method: MC3T3-E1 cells mixed with 10% FBS+αMEM (SIGMA) were seeded on a 6-well plate (7.5×10^4 cells/well). After 12 hours, the medium was removed therefrom and a medium containing 200 μM peptide D or 200 ng/ml BMP-2 was added thereto. The medium was removed at the respective time points shown in the relevant figures. PBS was added to the cells, and the cells were collected with a scraper (Falcon). A cell pellet was obtained via centrifugation at 1200 rpm for 5 min at 4° C. RIPA buffer (100 μL) was added to the collected pellet, for dissolution of the cellular membrane. Further, the resultant was centrifuged under conditions of 14500 rpm for 25 min at 4° C. The supernatant was collected as a cell extract. A portion of the cell extract was used for quantification of the protein concentration with the use of a BCA protein assay kit (PIERCE). For SDS-PAGE, a sample buffer in an amount that was ¼ that of the cell extract (Fermentas) was added thereto, followed by heating at 95° C. for 5 min. The prepared sample was applied in an amount of 7.5 or 10 μg to 10% polyacrylamide gel (BioRad), followed by electrophoresis at 170 V for 1 hour. After electrophoresis, the electrophoresed sample was transferred to a PVDF membrane (Millipore) at 80 mA for 40 min. […]

C2C12 cells = experiment: ALP activity determination in C2C12 cells; type: cell-based, mouse; settings: 100 and 200 ng/ml BMP-2 alone; 6 days
Method: Seven days after differentiation, the culture supernatant was removed from each plate and the cells were fixed with an acetone/ethanol solution. The ALP activity was determined using p-nitrophenyl phosphate as a substrate. Specifically, a carbonate buffer (5 mM MgCl2, 50 mM NaHCO3) containing p-nitrophenyl phosphate (Nacalai) (1 mg/mL) was added to each well (100 μL/well), followed by incubation at 37° C. Then, the OD value at 405 nm was determined with the use of a microplate reader (BMG Labtech) for each well.
C2C12 cells, which are mouse myoblast precursor cells, were seeded on a 96-well plate (6.5×10^3 cells/well). After 48 hours, the culture supernatant was replaced with 5% FBS+DMEM (SIGMA) containing 300 ng/mL BMP-2 (R&D). During medium replacement, an antibody (100 ng/mL) was added thereto, followed by culture for 7 days.
In order to examine synergistic effects of peptide D and BMP-2, ALP activity determination was carried out using C2C12 cells in which ALP activity enhancement takes place depending on the addition of BMP-2. C2C12 cells mixed with 5% FBS+αMEM (SIGMA) were seeded on a 96-well plate (1×10^4 cells/well). After 6 hours, the medium was removed therefrom. […]

B1: BMP-2: BMP-2 (R&D), known bone morphogenetic factor used as positive control (protein, UniProt P12643 283-396, looked up)
Bone morphogenetic protein 2: QAKHKQRKRLKSSCKRHPLYVDFSDVGWNDWIVAPPGYHAFYCHGECPFPLADHLNSTNHAIVQTLVNSVNSKIPKACCVPTELSAISMLYLDENEKVVLKNYQDMVVEGCGCR
B1 was tested, and the p38 phosphorylation (MAP kinase p38) was “p38 phosphorylation was observed” and the ALP activity (C2C12 cells) was “enhanced ALP activity in a concentration-dependent manner”.
